Measurements reported in publication PMC4394352.

What was measured:
[1] = target: PPP1R15B(631–701)-MBP and PP1G(7–300) binary complex (human | mouse) (UniProt Q5SWA1)
[2] = target: PPP1R15B(631–701)-MBP and PP1G(7–300) binary complex (human | mouse) (UniProt Q5SWA1); remark: listed apart in the source
[3] = target: PPP1R15A(539–614)-PP1G(7–323) binary complex (mouse) (UniProt P17564)
[4] = target: PPP1R15A(539–614)-PP1G(7–323) binary complex (mouse) (UniProt P17564); experiment: SEC; ternary complex: stoichiometric binary complex on glutathione-sepharose resin incubated with latrunculin B-blocked G-actin 90–120 min at 4°C, eluted, TEV-cleaved, tandem Superdex 75/200 SEC; fractions on Coomassie-stained SDS-PAGE
[5] = target: PPP1R15B(631–701)-PP1G(7–323) binary complex (human | mouse) (UniProt Q5SWA1); experiment: as above

acceleration of eIF2a^P dephosphorylation (initial velocity, substrate 0.5–4 µM) by the ternary complex over the binary complex (Figure 4E) [1]: 16.5 fold
concentration of G-actin for half maximal stimulation of eIF2a^P dephosphorylation by 68 nM PPP1R15B-PP1G (Figure 5A) [2]: < 100 nM
concentration of G-actin for half maximal stimulation of eIF2a^P dephosphorylation by 16 nM PPP1R15A-PP1G (Figure 5A) [3]: < 100 nM
stoichiometry N [4]: 1
stoichiometry N [5]: 1
Substance: G-actin (rabbit muscle) (from UniProt P68135 1-377) (natural protein)
